Target: T1, CMH-1 (Homo sapiens, UniProt P55210)
T1 construct: we expressed an N-terminal (His)6-tagged CMH-1(Ala24-Gln303) in E. coli; made in house; host or cells: E. coli BL21(DE3), pET-15b
T1 sequence (P55210 24-303): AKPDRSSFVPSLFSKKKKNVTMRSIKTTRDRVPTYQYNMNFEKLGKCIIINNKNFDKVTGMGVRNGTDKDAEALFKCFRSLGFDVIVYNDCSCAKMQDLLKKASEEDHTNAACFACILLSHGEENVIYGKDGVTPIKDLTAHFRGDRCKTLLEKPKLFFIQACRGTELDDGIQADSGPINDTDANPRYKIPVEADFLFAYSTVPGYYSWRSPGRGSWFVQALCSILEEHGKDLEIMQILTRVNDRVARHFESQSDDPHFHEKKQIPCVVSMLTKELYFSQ
T1 sequence (P55210 199-303): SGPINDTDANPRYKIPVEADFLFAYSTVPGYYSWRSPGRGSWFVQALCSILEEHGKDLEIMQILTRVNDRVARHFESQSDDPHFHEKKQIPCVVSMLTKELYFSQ
Assay: Inhibition of in vitro cleavage of 35S-labelled PARP by CMH-1 (SDS-PAGE and fluorography)
Type: biochemical
Details: 35S-labelled PARP as substrate, Fig. 4, panel B
Protocol: In order to determine the activity of purified CMH-1, we determined whether the protein could cleave ^35[S]-labeled pro-IL-1b and PARP and compared its cleavage activity to purified ICE. We prepared ^35[S]-labeled PARP and IL-1b precursor (pro-IL-1b) by in vitro transcription and translation. Cleavage experiments were carried out as described previously [Y. Gu et al., J. Biol. Chem. (1995)]. Cleavage products were analyzed by SDS-PAGE and fluorography as described in that reference.
This was consistent with the relative sequence identity between CPP32 and cmh-1.

DEVD-CHO
inhibition of the cleavage activity of CMH-1: inhibited

Source: patent EP0858509B1, “DNA SEQUENCES ENCODING CMH-1, A CYSTEINE PROTEASE INVOLVED IN APOPTOSIS” (VERTEX PHARMACEUTICALS INCORPORATED, priority 1995, dated 1997)
